Results reported in patent publication US11744898B2, “Multi-arm polymer conjugates of TLR agonist compounds and related immunotherapeutic treatment methods” (Nektar Therapeutics, priority 2017, dated 2023).

Legend:
hTLR8 = target: T1, hTLR8 (Homo sapiens, UniProt Q9NR97); test: SEAP reporter gene assay in HEK293 cells stably transfected with human TLR receptor; type: cell-based; details: hTLR8 reporter cell line
T1 construct: expressed in transfected cells; host or cells: HEK293
T1 sequence (Q9NR97 27-1041): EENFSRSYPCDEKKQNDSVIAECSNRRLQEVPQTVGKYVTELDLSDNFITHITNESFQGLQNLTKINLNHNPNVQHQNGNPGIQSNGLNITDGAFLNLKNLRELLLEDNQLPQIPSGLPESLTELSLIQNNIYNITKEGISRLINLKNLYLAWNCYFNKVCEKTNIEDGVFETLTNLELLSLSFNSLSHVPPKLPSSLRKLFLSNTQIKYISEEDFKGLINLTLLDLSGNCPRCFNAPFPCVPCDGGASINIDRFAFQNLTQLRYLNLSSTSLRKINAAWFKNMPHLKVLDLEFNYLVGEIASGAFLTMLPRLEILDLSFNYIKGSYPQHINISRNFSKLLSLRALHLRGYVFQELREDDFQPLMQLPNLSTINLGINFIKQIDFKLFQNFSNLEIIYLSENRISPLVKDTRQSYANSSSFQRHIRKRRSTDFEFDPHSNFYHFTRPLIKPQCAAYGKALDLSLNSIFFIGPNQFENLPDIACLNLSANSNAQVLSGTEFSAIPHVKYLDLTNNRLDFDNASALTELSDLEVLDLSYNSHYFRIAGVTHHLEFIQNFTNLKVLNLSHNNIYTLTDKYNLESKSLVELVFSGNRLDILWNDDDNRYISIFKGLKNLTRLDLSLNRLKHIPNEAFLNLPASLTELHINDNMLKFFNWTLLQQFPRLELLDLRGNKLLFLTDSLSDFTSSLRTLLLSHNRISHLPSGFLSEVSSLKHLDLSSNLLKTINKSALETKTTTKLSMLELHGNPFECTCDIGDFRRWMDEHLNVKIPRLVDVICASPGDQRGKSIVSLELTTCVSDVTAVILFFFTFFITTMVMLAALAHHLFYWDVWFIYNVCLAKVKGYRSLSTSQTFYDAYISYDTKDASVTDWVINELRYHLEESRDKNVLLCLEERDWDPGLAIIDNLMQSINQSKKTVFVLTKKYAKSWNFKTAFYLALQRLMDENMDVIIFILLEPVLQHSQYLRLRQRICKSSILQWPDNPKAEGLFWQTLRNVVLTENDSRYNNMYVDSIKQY
Source text: (§1) Parental cell lines (Null1 and Null1K, stably transfected with the SEAP reports but without hTLR receptor expression) were used as negative controls.

hTLR7 = target: T2, hTLR7 (Homo sapiens, UniProt Q9NYK1); test: as above; type: cell-based; details: hTLR7 reporter cell line
T2 construct: expressed in transfected cells; host or cells: HEK293
T2 sequence (Q9NYK1 27-1049): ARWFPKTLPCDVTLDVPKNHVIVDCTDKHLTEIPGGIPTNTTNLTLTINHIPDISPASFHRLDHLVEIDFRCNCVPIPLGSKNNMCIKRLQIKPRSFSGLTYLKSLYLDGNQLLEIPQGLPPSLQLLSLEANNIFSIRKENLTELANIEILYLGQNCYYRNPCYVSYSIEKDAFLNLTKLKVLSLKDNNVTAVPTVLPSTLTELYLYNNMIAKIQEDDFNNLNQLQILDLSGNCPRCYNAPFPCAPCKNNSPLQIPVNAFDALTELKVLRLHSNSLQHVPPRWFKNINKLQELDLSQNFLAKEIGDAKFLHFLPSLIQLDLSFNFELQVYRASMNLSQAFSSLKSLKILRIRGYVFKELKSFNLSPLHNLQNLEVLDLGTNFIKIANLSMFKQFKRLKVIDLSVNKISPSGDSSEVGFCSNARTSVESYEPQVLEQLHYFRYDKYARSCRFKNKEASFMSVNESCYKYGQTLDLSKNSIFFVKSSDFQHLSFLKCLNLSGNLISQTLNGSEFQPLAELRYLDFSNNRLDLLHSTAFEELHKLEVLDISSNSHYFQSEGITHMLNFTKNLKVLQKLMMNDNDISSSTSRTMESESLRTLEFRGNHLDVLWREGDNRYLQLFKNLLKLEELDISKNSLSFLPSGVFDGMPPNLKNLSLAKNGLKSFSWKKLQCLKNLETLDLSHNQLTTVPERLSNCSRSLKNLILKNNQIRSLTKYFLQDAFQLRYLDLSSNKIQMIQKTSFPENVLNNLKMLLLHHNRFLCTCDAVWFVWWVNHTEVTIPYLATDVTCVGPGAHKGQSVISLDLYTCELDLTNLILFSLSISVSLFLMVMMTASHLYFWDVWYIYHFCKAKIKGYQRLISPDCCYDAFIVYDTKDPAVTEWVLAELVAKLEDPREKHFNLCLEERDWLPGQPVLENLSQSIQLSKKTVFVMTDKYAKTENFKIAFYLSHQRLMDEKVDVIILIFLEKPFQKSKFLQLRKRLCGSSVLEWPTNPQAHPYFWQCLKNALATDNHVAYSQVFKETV
Source text: as §1

[1] = Plasma and tumor concentrations following single 10 μg (R848 equivalents) intratumoral administration to EMT6 tumor bearing mice; type: in vivo, Balb/c mice; design: unit not given here
Protocol: (§2) Studies were conducted to evaluate the single dose pharmacokinetics of R848 and Compound 6 in plasma and tumor tissue.
(§3) Plasma and tumor tissues were collected at pre-determined time points for analysis of R848 and Compound 6 using a qualified LC-MS/MS method.

[2] = as above; type: in vivo, Balb/c mice; design: key: +<10; 10≤++<100; 100≤+++<1,000; 1,000≤++++; BLQ is Below the Limit of Quantitation
Protocol: as §2, §3

[3] = Plasma and tumor concentrations following single 10 μg (R848 equivalents) intratumoral administration to CT26 tumor bearing mice; type: in vivo, Balb/c mice; design: unit not given here
Protocol: as §2, §3

[4] = as above; type: in vivo, Balb/c mice; design: key: +<10; 10≤++<100; 100≤+++<1,000; 1,000≤++++; BLQ is Below the Limit of Quantitation; details: 96.00 hr post-dose
Protocol: as §2, §3

[5] = as above; type: in vivo, Balb/c mice; design: key to Compound 6 plasma concentration: +<10; 10≤++<100; 100≤+++<1,000; 1,000≤++++; BLQ is Below the Limit of Quantitation; R848 tumor concentration: ranges in brackets are in ng/g; details: for Compound 6 plasma concentration / Compound 6 tumor concentration: R848 Equivalent
Protocol: as §2, §3

[6] = Plasma and tumor concentrations following single 10 μg (R848 equivalents) intratumoral administration to EMT6 tumor bearing mice; type: in vivo, Balb/c mice; design: key to Compound 6 tumor concentration: +<1,000; 1,000≤++<10,000; 10,000≤+++<100,000; 100,000≤++++; BLQ is Below the Limit of Quantitations; key to Compound 6 plasma concentration: +<10; 10≤++<100; 100≤+++<1,000; 1,000≤++++; BLQ is Below the Limit of Quantitation; R848 tumor concentration: ranges in brackets are in ng/g; details: for Compound 6 plasma concentration / Compound 6 tumor concentration: R848 Equivalent
Protocol: as §2, §3

For “4-arm-PEG20k-CM-glycine-N-R848 [Compound 6]”, the EC50 (hTLR8; Experiment 1) was > 30 µM, the EC50 (hTLR8; Experiment 2) was > 30 µM and the EC50 (hTLR8; Experiment 3) was > 30 µM. The EC50 (hTLR8; Mean) was > 30 µM, the EC50 (hTLR7; Experiment 1) was 4.6 µM and the EC50 (hTLR7; Experiment 2) was 3.5 µM. For the same substance, the EC50 (hTLR7; Experiment 3) was 4.8 µM, the EC50 (hTLR7; Mean) was 4.3 µM and the R848 plasma concentration ([1]; 0.25 hr post-dose) was “+ (+<10)”. For the same substance, the R848 plasma concentration ([1]; 2.00 hr post-dose) was “+ (+<10)”, the R848 plasma concentration ([1]; 6.00 hr post-dose) was “+ (+<10)” and the R848 plasma concentration ([1]; 24.00 hr post-dose) was “+ (+<10)”. The R848 plasma concentration ([2]; 72.00 hr post-dose) was “BLQ”, the R848 plasma concentration ([2]; 96.00 hr post-dose) was “BLQ” and the R848 plasma concentration ([2]; 120.00 hr post-dose) was “BLQ”. The R848 plasma concentration ([2]; 144.00 hr post-dose) was “BLQ”, the R848 plasma concentration ([3]; 0.25 hr post-dose) was “+ (+<10)” and the R848 plasma concentration ([3]; 2.00 hr post-dose) was “+ (+<10)”. The R848 plasma concentration ([3]; 6.00 hr post-dose) was “+ (+<10)”, the R848 plasma concentration ([3]; 24.00 hr post-dose) was “+ (+<10)” and the R848 plasma concentration ([3]; 72.00 hr post-dose) was “+ (+<10)”. The R848 plasma concentration ([3]; 120.00 hr post-dose) was “+ (+<10)”, the R848 plasma concentration ([3]; 144.00 hr post-dose) was “+ (+<10)” and the R848 plasma concentration [4] was “BLQ”. The R848 tumor concentration ([5]; 0.25 hr post-dose) was “+ (+<1,000)”, the “Compound 6 plasma concentration” value ([5]; 0.25 hr post-dose) was “+++ (100≤+++<1,000)” and the “Compound 6 tumor concentration” value ([5]; 0.25 hr post-dose) was “+++ (10,000≤+++<100,000)”. The R848 tumor concentration ([5]; 2.00 hr post-dose) was “+ (+<1,000)”, the “Compound 6 plasma concentration” value ([5]; 2.00 hr post-dose) was “+++ (100≤+++<1,000)” and the “Compound 6 tumor concentration” value ([5]; 2.00 hr post-dose) was “+++ (10,000≤+++<100,000)”. For the same substance, the R848 tumor concentration ([5]; 6.00 hr post-dose) was “+ (+<1,000)”, the “Compound 6 plasma concentration” value ([5]; 6.00 hr post-dose) was “+++ (100≤+++<1,000)” and the “Compound 6 tumor concentration” value ([5]; 6.00 hr post-dose) was “++ (1,000≤++<10,000)”. The R848 tumor concentration ([5]; 24.00 hr post-dose) was “+ (+<1,000)”, the “Compound 6 plasma concentration” value ([5]; 24.00 hr post-dose) was “+++ (100≤+++<1,000)” and the “Compound 6 tumor concentration” value ([5]; 24.00 hr post-dose) was “++ (1,000≤++<10,000)”. For the same substance, the R848 tumor concentration ([5]; 72.00 hr post-dose) was “+ (+<1,000)”, the “Compound 6 plasma concentration” value ([5]; 72.00 hr post-dose) was “BLQ” and the “Compound 6 tumor concentration” value ([5]; 72.00 hr post-dose) was “+ (+<1,000)”. For the same substance, the R848 tumor concentration ([5]; 96.00 hr post-dose) was “+ (+<1,000)”, the “Compound 6 plasma concentration” value ([5]; 96.00 hr post-dose) was “BLQ” and the “Compound 6 tumor concentration” value ([5]; 96.00 hr post-dose) was “+ (+<1,000)”. For the same substance, the R848 tumor concentration ([5]; 120.00 hr post-dose) was “+ (+<1,000)”, the “Compound 6 plasma concentration” value ([5]; 120.00 hr post-dose) was “BLQ” and the “Compound 6 tumor concentration” value ([5]; 120.00 hr post-dose) was “+ (+<1,000)”. The R848 tumor concentration ([5]; 144.00 hr post-dose) was “+ (+<1,000)”, the “Compound 6 plasma concentration” value ([5]; 144.00 hr post-dose) was “BLQ” and the “Compound 6 tumor concentration” value ([5]; 144.00 hr post-dose) was “+ (+<1,000)”. The R848 tumor concentration ([6]; 0.25 hr post-dose) was “+ (+<1,000)”, the “Compound 6 plasma concentration” value ([6]; 0.25 hr post-dose) was “++ (10≤++<100)” and the “Compound 6 tumor concentration” value ([6]; 0.25 hr post-dose) was “+++ (10,000≤+++<100,000)”. The R848 tumor concentration ([6]; 2.00 hr post-dose) was “+ (+<1,000)”, the “Compound 6 plasma concentration” value ([6]; 2.00 hr post-dose) was “+++ (100≤+++<1,000)” and the “Compound 6 tumor concentration” value ([6]; 2.00 hr post-dose) was “+++ (10,000≤+++<100,000)”. The R848 tumor concentration ([6]; 6.00 hr post-dose) was “+ (+<1,000)”, the “Compound 6 plasma concentration” value ([6]; 6.00 hr post-dose) was “+++ (100≤+++<1,000)” and the “Compound 6 tumor concentration” value ([6]; 6.00 hr post-dose) was “++ (1,000≤++<10,000)”. For the same substance, the R848 tumor concentration ([6]; 24.00 hr post-dose) was “+ (+<1,000)”, the “Compound 6 plasma concentration” value ([6]; 24.00 hr post-dose) was “++ (10≤++<100)” and the “Compound 6 tumor concentration” value ([6]; 24.00 hr post-dose) was “+ (+<1,000)”. The R848 tumor concentration ([6]; 72.00 hr post-dose) was “+ (+<1,000)”, the “Compound 6 plasma concentration” value ([6]; 72.00 hr post-dose) was “BLQ” and the “Compound 6 tumor concentration” value ([6]; 72.00 hr post-dose) was “+ (+<1,000)”. For the same substance, the R848 tumor concentration ([6]; 96.00 hr post-dose) was “+ (+<1,000)”, the “Compound 6 plasma concentration” value ([6]; 96.00 hr post-dose) was “BLQ” and the “Compound 6 tumor concentration” value ([6]; 96.00 hr post-dose) was “+ (+<1,000)”. For the same substance, the R848 tumor concentration ([6]; 120.00 hr post-dose) was “+ (+<1,000)”, the “Compound 6 plasma concentration” value ([6]; 120.00 hr post-dose) was “BLQ” and the “Compound 6 tumor concentration” value ([6]; 120.00 hr post-dose) was “+ (+<1,000)”. The R848 tumor concentration ([6]; 144.00 hr post-dose) was “+ (+<1,000)”, the “Compound 6 plasma concentration” value ([6]; 144.00 hr post-dose) was “BLQ” and the “Compound 6 tumor concentration” value ([6]; 144.00 hr post-dose) was “BLQ”.
